In patent publication US20080096811A1, “[…] VPAC2 RECEPTOR PEPTIDE AGONISTS” (Eli Lilly and Company, published 2008):
pEC50, pIC50: −log10 of the molar value.

The chains behind the UniProt entries cited, without tags or fusion partners. Residues count along the entry.
UniProt P41586, 21-468: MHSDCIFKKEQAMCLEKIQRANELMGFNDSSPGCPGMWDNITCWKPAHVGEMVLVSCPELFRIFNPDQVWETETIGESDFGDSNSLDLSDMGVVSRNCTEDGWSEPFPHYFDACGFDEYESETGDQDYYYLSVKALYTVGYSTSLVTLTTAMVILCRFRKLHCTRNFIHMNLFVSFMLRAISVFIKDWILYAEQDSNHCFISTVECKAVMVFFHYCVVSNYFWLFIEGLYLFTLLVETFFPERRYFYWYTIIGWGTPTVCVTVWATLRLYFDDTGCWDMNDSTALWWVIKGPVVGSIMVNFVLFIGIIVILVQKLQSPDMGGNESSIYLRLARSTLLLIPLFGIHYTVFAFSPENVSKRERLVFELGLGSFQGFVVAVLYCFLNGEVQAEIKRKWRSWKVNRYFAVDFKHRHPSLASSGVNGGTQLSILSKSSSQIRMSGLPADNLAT
UniProt P35000, 23-437: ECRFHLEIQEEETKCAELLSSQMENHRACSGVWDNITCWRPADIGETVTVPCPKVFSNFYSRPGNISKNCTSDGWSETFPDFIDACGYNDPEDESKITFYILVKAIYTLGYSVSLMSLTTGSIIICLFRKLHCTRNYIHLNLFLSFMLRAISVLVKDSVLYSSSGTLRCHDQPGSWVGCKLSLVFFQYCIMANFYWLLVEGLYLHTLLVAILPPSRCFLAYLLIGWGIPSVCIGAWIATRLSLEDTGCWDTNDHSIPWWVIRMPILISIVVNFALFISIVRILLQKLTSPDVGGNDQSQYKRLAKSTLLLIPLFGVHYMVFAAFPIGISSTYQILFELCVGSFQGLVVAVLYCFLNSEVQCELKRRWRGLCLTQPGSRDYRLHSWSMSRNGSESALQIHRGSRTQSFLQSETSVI
UniProt P32241, 31-457: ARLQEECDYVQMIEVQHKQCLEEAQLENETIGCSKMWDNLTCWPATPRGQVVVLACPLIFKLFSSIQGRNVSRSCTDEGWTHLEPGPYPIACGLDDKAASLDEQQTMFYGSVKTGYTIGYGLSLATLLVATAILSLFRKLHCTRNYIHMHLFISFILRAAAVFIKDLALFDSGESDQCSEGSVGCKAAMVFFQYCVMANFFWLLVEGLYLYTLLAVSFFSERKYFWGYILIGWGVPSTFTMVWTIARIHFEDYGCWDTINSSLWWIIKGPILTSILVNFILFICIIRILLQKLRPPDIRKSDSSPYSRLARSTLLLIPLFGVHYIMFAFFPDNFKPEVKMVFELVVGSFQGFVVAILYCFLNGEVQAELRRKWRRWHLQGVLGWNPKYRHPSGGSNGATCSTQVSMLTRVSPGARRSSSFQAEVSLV

Experiments:
[1] = 10 μM peptide in rat serum, 37° C. vs 4° C. with aprotinin, EC50,4C/EC50,37C
human VPAC2 [2] = molecular target: T1, human VPAC2 (Homo sapiens, UniProt P41587); experiment: Alpha screen cAMP in vitro potency, human VPAC2; assay type: cell-based
T1 construct: expressed in transfected cells
T1 sequence (P41587 24-438): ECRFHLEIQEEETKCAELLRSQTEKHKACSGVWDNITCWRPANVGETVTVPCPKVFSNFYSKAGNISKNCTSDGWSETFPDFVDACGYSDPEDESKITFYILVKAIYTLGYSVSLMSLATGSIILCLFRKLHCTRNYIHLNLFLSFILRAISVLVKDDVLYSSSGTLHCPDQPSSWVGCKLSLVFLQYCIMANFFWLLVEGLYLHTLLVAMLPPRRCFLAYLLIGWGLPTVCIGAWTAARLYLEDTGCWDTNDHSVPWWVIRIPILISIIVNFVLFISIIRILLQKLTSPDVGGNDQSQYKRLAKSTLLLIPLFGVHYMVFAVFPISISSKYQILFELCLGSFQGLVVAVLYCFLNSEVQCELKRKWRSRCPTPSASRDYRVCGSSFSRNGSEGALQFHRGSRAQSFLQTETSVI
Description: Alpha screen: Cells are washed in the culture flask once with PBS. Then, the cells are rinsed with enzyme free dissociation buffer. The dissociated cells are removed. The cells are then spun down and washed in stimulation buffer. For each data point, 50,000 cells suspended in stimulation buffer are used. To this buffer, Alpha screen acceptor beads are added along with the stimuli. This mixture is incubated for 60 minutes. Lysis buffer and Alpha screen donor beads are added and are incubated for 60 to 120 minutes. The Alpha screen signal (indicative of intracellular cAMP levels) is read in a suitable instrument (e.g. AlphaQuest from Perlin-Elmer). Steps including Alpha screen donor and acceptor beads are performed in reduced light.

human PAC1 = human PAC1 (Homo sapiens, UniProt P41586); experiment: biochemical
Description: (§1) For this assay, the solutions and equipment include:
(§2) Presoak solution: 0.5% Polyethyleneamine in Aqua dest.
(§3) Buffer for flushing filter plates: 25 mM […] pH 7.4
(§4) Blocking buffer: 25 mM HEPES pH 7.4; 0.2% protease free BSA
(§5) Assay buffer: 25 mM HEPES pH 7.4; 0.5% protease free BSA
(§6) Dilution and assay plate: PS-Microplate, U form
(§7) Filtration Plate Multiscreen FB Opaque Plate; […] Type B Glasfiber filter
(§8) In order to prepare the filter plates, aspirate the presoak solution by vacuum filtration. Flush the plates twice with 200 μL flush buffer. Add 200 μL blocking buffer to the filter plate. The filter plate is then incubated […] for 1 hour at room temperature.
(§9) Fill the assay plate with 25 μL assay buffer, 25 μL membranes (2.5 μg) suspended in assay buffer, 25 μL compound (agonist) in assay buffer, and 25 μL tracer (about 40000 cpm) in assay buffer. Incubate the filled plate for 1 hour with shaking.
(§10) Conduct the transfer from assay plate to filter plate. Aspirate the blocking buffer by vacuum filtration and wash two times with flush buffer. Transfer 90 μL from the assay plate to the filter plate. Aspirate the 90 μL transferred from assay plate and wash three times with 200 μL flush buffer. Remove the plastic support. Dry for 1 hour at 60° C. Add 30 μL Microscint. Perform the count.

rat VPAC2 receptor = rat VPAC2 receptor (Rattus norvegicus, UniProt P35000); experiment: cell-based
human VPAC2 [3] = molecular target: T1, human VPAC2; experiment: Filter binding assay, human VPAC2 membranes, 125I-labeled VIP tracer
Description: as §1, §2, §3, §4, §5, §6, §7, §8, §9, §10

human VPAC1 = human VPAC1 (Homo sapiens, UniProt P32241); experiment: Filter binding assay, human VPAC1 membranes, 125I-labeled VIP tracer; set-up: expressed in transfected cells
Description: as §1, §2, §3, §4, §5, §6, §7, §8, §9, §10

Which results are given for `CCCCCC(=O)N[C@@H](Cc1c[nH]cn1)C(=O)N[C@@H](CO)C(=O)N[C@@H](CC(=O)O)C(=O)N[C@@H](C)C(=O)N[C@H](C(=O)N[C@@H](Cc1ccccc1)C(=O)N[C@H](C(=O)N[C@@H](CC(=O)O)C(=O)N[C@@H](CC(N)=O)C(=O)N[C@@H](Cc1ccc(O)cc1)C(=O)N[C@H](C(=O)N[C@@H](CCCNC(=N)N)C(=O)N[C@@H](CC(C)C)C(=O)N[C@@H](CCCNC(=N)N)C(=O)NC(C)(C)C(=O)N[C@@H](CCC(N)=O)C(=O)N[C@H](C(=O)N[C@@H](C)C(=O)N[C@@H](C)C(=O)NC(C)(C)C(=O)N[C@@H](CCCCN)C(=O)N[C@@H](Cc1ccc(O)cc1)C(=O)N[C@@H](CC(C)C)C(=O)N[C@@H](CCC(N)=O)C(=O)N[C@@H](CO)C(=O)N[C@H](C(=O)N[C@@H](CCCCN)C(=O)N[C@@H](CC(N)=O)C(=O)N[C@@H](CO)C(=O)N[C@@H](CCCNC(=N)N)C(=O)N[C@H](C(=O)N[C@@H](CO)C(=O)N1CCC[C@H]1C(=O)N1CCC[C@H]1C(=O)N1CCC[C@H]1C(N)=O)[C@@H](C)O)[C@@H](C)CC)C(C)C)[C@@H](C)O)[C@@H](C)O)C(C)C` [Agonist P309]?
Rat Serum Stability (Estimated purity in % after 18 hours) [1]: 29.72%; pEC50 (human VPAC2 [2]): 9.80; pIC50 (human PAC1): < 4.60; pEC50 (rat VPAC2 receptor): 10.30; pIC50 (human VPAC2 [3]): 9.38; pIC50 (human VPAC1): < 5.52
